Test results published in ChEMBL document CHEMBL1143479.

Target: Carbonic anhydrase 2 (Homo sapiens, UniProt P00918)

- Ki: 150 nM
SMILES: NS(=O)(=O)c1cccc(NC(=O)Nc2ccccc2)c1
